Chains of the proteins cited; added tags and fusions are not shown. Residues count along the entry.
UniProt P10721, 26-976: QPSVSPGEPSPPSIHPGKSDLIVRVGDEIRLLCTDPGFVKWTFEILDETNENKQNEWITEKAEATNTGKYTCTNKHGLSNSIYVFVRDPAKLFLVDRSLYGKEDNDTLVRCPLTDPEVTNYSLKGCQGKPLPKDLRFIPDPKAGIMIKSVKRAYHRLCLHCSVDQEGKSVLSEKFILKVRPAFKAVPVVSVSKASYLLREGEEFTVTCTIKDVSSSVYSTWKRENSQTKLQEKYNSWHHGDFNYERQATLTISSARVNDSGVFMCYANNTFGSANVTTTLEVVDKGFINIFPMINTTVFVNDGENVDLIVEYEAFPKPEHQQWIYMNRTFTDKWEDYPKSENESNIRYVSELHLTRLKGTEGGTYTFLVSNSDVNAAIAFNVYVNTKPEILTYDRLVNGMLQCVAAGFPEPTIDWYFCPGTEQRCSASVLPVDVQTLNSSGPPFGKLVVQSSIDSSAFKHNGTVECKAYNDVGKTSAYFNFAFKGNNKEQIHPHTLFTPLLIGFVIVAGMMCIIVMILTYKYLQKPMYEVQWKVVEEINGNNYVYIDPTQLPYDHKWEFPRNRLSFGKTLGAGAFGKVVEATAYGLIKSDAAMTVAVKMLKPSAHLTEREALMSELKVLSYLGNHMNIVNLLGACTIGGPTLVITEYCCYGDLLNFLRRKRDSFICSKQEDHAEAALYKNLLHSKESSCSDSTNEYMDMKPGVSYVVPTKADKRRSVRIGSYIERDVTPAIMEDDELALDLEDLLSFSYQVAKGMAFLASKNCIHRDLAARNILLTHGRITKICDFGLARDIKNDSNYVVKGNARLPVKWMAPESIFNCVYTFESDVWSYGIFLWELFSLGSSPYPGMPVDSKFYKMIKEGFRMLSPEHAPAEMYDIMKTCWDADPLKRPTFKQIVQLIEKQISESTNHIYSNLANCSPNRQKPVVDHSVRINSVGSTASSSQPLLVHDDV
UniProt P00519, whole entry: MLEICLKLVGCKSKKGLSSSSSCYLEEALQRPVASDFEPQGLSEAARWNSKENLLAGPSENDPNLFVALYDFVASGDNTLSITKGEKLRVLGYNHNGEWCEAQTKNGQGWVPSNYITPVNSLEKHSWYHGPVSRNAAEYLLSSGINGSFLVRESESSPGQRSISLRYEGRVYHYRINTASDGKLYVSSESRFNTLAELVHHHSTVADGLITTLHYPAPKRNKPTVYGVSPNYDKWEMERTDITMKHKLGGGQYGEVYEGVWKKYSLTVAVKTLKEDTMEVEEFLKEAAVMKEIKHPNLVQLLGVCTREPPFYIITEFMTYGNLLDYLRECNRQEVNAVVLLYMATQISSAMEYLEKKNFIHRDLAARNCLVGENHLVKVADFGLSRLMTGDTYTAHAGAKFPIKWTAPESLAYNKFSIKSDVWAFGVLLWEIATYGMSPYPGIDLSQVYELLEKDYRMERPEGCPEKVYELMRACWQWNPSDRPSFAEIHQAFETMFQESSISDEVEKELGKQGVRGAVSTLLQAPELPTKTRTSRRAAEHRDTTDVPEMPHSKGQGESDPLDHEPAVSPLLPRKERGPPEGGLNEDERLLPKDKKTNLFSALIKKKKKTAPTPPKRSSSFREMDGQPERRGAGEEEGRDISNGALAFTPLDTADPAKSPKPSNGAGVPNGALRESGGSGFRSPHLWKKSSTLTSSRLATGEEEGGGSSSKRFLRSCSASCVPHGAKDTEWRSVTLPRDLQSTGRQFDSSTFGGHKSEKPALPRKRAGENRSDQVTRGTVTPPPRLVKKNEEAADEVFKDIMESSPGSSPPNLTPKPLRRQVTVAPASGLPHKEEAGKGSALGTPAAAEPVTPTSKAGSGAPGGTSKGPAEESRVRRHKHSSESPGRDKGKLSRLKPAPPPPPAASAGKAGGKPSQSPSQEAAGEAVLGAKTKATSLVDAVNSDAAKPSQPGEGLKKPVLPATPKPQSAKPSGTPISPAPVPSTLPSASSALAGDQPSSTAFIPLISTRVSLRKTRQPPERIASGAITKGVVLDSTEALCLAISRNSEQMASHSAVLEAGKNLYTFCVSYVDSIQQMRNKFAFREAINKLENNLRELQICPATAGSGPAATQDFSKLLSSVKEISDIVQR
UniProt P42684, whole entry: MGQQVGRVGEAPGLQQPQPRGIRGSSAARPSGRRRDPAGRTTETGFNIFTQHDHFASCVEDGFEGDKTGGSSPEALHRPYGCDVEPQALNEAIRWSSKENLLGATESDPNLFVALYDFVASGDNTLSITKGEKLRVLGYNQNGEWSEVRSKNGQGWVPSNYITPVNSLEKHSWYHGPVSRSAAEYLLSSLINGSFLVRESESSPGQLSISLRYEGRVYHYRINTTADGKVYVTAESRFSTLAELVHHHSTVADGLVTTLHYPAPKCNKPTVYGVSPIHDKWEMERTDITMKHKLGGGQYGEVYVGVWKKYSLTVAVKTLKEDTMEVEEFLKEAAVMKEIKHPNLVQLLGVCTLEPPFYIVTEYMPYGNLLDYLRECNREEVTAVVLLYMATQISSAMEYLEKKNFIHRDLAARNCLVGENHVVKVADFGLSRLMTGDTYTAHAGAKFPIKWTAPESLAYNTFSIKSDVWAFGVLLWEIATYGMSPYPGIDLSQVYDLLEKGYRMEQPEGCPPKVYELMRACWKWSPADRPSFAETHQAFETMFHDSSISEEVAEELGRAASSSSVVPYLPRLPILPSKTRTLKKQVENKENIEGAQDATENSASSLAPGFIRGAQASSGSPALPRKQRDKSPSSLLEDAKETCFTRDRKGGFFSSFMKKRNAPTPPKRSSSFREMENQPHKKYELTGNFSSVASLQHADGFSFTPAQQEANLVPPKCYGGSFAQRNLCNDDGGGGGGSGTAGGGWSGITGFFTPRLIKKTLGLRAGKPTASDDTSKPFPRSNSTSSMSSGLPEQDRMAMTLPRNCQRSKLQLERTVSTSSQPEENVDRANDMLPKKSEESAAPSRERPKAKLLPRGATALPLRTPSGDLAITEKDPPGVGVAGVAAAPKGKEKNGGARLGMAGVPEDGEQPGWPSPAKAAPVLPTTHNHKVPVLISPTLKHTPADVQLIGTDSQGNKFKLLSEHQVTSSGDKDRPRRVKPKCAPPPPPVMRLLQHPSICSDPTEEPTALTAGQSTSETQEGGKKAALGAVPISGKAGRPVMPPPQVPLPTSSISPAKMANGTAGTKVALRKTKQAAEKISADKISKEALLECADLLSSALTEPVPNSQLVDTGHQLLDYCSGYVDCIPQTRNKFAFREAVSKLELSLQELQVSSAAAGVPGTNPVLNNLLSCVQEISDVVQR

According to patent US12629371B2, “Compositions and methods for inhibiting kinases” (Inhibikase Therapeutics, Inc., priority 2016, dated 2026):

Legend:
Format in all cases: biochemical
c-Kit = c-Kit (Homo sapiens, UniProt P10721); assay: Inhibition of c-Kit (FAM-labeled peptide assay, IC50)
c-Abl1 = c-Abl1 (Homo sapiens, UniProt P00519); assay: Inhibition of Abelson protein kinase c-Abl1 (FAM-labeled peptide assay, IC50)
c-Abl2 = c-Abl2 (Homo sapiens, UniProt P42684); assay: Inhibition of Abelson protein kinase c-Abl2 (FAM-labeled peptide assay, IC50)

Cc1ccc(NC(=O)c2ccc(CN3CCN(C)CC3)cc2)cc1Nc1nccc(-c2cncc(-c3ccn[nH]3)c2)n1 [Compound 107] showed an IC50 (c-Kit) of 7.2 nM, an IC50 (c-Abl1) of 45.2 nM and an IC50 (c-Abl2) of 67 nM.
